1 substance from patent US12234271B2 (Synthorx, Inc., priority 2019, dated 2025) can be followed below.

For the experiment, the system named is CTLL-2. Briefly: CTLL-2 proliferation. In kind it is cell-based. Conditions: mouse CTLL-2. The source says: FIG. 4A-FIG. 4B show the dose response curves for pSTAT5 signaling in human LRS primary cell (FIG. 4A) and proliferation response in mouse CTLL-2 populations (FIG. 4B).

Regarding “native IL-2: native (wild-type) human IL-2 used as comparator [reference compound]”, the “CTLL-2 proliferation EC50” value turned out to be 0.4558 ng/mL.
